Measured values reported in ChEMBL document CHEMBL1127482 (J Med Chem, 1994).

Sequences of proteins named here, by UniProt entry; tags and fusion partners are left off. Residues count along the entry.
UniProt P05106, 27-788 limits assumed: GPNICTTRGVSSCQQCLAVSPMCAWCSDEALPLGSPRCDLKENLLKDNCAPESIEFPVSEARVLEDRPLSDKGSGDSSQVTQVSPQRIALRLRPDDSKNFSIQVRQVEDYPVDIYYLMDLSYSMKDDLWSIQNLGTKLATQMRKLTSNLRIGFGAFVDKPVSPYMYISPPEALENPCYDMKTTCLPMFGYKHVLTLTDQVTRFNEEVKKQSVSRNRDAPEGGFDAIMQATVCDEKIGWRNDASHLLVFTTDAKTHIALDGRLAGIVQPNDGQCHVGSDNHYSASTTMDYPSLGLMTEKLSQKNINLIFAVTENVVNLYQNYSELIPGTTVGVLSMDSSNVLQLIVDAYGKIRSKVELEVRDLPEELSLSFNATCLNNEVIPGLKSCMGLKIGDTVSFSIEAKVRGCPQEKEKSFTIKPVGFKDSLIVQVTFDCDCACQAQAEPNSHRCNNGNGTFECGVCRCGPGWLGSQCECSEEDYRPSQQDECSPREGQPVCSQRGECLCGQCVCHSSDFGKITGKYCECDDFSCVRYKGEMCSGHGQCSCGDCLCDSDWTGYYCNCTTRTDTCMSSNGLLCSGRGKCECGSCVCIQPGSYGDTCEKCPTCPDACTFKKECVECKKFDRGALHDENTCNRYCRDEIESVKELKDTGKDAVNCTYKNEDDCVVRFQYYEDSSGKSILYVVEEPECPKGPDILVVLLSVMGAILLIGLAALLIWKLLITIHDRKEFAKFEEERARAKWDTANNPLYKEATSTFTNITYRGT
UniProt P08514, 32-887 limits assumed: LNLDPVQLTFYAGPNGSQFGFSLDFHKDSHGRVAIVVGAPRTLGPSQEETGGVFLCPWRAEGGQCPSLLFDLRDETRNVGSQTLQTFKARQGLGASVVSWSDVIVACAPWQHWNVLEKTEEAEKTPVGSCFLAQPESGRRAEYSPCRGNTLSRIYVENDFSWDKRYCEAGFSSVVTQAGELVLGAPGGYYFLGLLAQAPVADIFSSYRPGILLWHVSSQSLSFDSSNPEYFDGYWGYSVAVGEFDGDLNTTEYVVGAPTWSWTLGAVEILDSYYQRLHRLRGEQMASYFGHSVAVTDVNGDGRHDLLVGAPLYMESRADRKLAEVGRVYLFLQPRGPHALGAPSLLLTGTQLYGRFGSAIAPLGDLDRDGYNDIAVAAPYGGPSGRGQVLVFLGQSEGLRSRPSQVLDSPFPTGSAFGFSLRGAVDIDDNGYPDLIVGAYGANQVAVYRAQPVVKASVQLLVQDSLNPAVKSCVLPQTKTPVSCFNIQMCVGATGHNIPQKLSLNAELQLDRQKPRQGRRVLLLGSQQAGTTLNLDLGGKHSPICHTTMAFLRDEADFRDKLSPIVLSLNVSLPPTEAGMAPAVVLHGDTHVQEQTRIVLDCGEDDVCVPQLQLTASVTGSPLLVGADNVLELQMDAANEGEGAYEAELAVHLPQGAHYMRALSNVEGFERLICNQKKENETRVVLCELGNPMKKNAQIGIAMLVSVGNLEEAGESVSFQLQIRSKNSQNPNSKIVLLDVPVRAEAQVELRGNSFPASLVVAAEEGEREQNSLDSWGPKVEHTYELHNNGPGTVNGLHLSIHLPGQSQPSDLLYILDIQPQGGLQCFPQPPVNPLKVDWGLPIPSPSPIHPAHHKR
UniProt P08514, 891-1039 limits assumed: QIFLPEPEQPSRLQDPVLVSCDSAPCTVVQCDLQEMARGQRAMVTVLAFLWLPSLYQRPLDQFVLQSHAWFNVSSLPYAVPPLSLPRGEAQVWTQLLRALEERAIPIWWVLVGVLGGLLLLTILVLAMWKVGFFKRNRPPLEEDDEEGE
UniProt P08648, 895-1049 limits assumed: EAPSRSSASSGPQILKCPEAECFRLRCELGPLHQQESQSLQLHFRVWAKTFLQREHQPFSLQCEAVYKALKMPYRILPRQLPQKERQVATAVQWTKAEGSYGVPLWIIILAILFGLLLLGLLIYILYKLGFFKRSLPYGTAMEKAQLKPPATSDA
UniProt P08648, 42-894 limits assumed: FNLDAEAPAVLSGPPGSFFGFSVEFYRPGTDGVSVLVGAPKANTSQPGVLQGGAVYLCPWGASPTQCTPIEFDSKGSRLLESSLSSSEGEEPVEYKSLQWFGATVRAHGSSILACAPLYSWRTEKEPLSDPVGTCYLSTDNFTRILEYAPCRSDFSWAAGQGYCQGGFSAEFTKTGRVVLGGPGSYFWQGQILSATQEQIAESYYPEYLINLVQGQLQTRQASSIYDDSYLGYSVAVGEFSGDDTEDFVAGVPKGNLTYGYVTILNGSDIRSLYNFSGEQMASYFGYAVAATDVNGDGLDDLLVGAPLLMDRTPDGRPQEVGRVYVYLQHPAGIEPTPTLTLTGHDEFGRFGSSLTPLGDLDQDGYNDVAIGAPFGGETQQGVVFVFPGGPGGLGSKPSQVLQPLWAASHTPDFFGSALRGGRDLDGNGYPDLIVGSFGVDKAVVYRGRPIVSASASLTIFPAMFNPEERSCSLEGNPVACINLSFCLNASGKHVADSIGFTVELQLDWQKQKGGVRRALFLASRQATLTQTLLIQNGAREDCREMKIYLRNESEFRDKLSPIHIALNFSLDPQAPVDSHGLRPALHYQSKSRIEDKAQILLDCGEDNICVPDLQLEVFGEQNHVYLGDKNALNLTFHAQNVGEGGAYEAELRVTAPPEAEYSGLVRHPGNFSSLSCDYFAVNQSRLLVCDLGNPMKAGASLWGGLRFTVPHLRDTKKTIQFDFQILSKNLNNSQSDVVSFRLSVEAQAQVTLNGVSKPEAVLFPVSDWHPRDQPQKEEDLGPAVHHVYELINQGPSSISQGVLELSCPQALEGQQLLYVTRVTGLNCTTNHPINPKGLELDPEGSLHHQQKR

What was measured:
[1] = molecular target: Integrin alpha-IIb/beta-3 (Homo sapiens, UniProt P05106+P08514); experiment: Binding affinity against integrin alpha 2b-beta 3 in enzyme linked immunosorbent assay (ELISA); assay type: protein-complex assay
Method in brief: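 Purified human platelet αIIbβ3 (from outdated platelets, octyl glucoside extract) in TBS with 20 mM octyl glucoside, 2 mM MgCl2 and 2 mM CaCl2 binds to plate-coated human fibrinogen (10 µg/mL in TBS) with 10-fold serial peptide dilutions for 3 h at room temperature. Bound receptor is detected with rabbit anti-αIIbβ3, then HRP anti-rabbit IgG, with o-phenylenediamine/H2O2 at pH 5.0. IC50 is reported.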

[2] = molecular target: Integrin alpha-5/beta-1 (Homo sapiens, UniProt P05556+P08648); experiment: Binding affinity against integrin alpha5-beta1 in enzyme linked immunosorbent assay (ELISA); assay type: protein-complex assay

Structure (SMILES) | IC50 [1] | IC50 [2]
COc1ccc(C[C@@H]2NC(=O)[C@H](CC(=O)O)NC(=O)CNC(=O)[C@H](CCCNC(=N)N)NC(=O)[C@@H]3CCCN3C(=O)[C@H](CC(N)=O)NC(=O)[C@@H](NC(C)=O)CSSC[C@@H](C(N)=O)NC(=O)[C@H](CCCCN)NC2=O)cc1 | 0.038 µM | 1.56 µM
COc1ccc(C[C@@H]2NC(=O)[C@H](CC(=O)O)NC(=O)CNC(=O)[C@H](CCCNC(=N)N)NC(=O)[C@@H]3CCCN3C(=O)[C@H](CC(N)=O)NC(=O)[C@@H](NC(C)=O)CSSC[C@@H](C(N)=O)NC(=O)[C@H](CCC(=O)O)NC2=O)cc1 | 0.02 µM | 6.24 µM
COc1ccc(C[C@@H]2NC(=O)[C@H](CC(=O)O)NC(=O)CNC(=O)[C@H](CCCN=C(N)N)NC(=O)[C@@H]3CCCN3C(=O)[C@H](CC(N)=O)NC(=O)[C@@H](NC(C)=O)CSSC[C@@H](C(N)=O)NC(=O)[C@H](CCCN)NC2=O)cc1 | – | 0.44 µM
CC[C@H](C)[C@@H]1NC(=O)[C@@H](NC(C)=O)CSSC[C@@H](C(N)=O)NC(=O)[C@H](CCCNC(=N)N)NC(=O)[C@H](Cc2ccc(OC)cc2)NC(=O)[C@H](CC(=O)O)NC(=O)CNC(=O)[C@H](CCCNC(=N)N)NC(=O)[C@@H]2CCCN2C1=O | 0.003 µM | –
COc1ccc(C[C@@H]2NC(=O)[C@H](CC(=O)O)NC(=O)CNC(=O)[C@H](CCCN=C(N)N)NC(=O)[C@@H]3CCCN3C(=O)[C@H](CC(N)=O)NC(=O)CC3(CCCCC3)SSC[C@@H](C(N)=O)NC(=O)[C@H](CCCN=C(N)N)NC2=O)cc1 | 0.031 µM | 5.1 µM
CCCCOc1ccc(C[C@@H]2NC(=O)[C@H](CC(=O)O)NC(=O)CNC(=O)[C@H](CCCNC(=N)N)NC(=O)[C@@H]3CCCN3C(=O)[C@H](CC(N)=O)NC(=O)[C@@H](NC(C)=O)CSSC[C@@H](C(N)=O)NC(=O)[C@H](CCCNC(=N)N)NC2=O)cc1 | 0.006 µM | –
CC(C)C[C@@H]1NC(=O)[C@H](CC(=O)O)NC(=O)CNC(=O)[C@H](CCCNC(=N)N)NC(=O)[C@H](Cc2c[nH]cn2)NC(=O)CNC(=O)[C@H](NC(=O)[C@@H](N)CCCNC(=N)N)C(C)(C)SSC[C@@H](C(=O)N[C@@H](CCCNC(=N)N)C(=O)O)NC(=O)[C@H](CCCNC(=N)N)NC1=O | – | 0.1 µM
CC(C)C[C@@H]1NC(=O)[C@H](CC(=O)O)NC(=O)CNC(=O)[C@H](CCCNC(=N)N)NC(=O)[C@H](Cc2c[nH]cn2)NC(=O)CNC(=O)CC2(CCCCC2)SSC[C@@H](C(=O)N[C@@H](C)C(=O)O)NC(=O)[C@H](CCCNC(=N)N)NC1=O | – | 0.83 µM
COc1ccc(C[C@@H]2NC(=O)[C@H](CC(=O)O)NC(=O)CNC(=O)[C@H](CCCN=C(N)N)NC(=O)[C@@H]3CCCN3C(=O)[C@H](CC(N)=O)NC(=O)CCSSC[C@@H](C(N)=O)NC(=O)[C@H](CCCN=C(N)N)NC2=O)cc1 | – | 6 µM
COc1ccc(C[C@@H]2NC(=O)[C@H](CC(=O)O)NC(=O)CNC(=O)[C@H](CCCN=C(N)N)NC(=O)[C@@H]3CCCN3C(=O)[C@H](CC(N)=O)NC(=O)[C@@H](NC(C)=O)CSSC[C@@H](C(N)=O)NC(=O)[C@H](CCCN=C(N)N)NC2=O)cc1 | – | 8.2 µM
COc1ccc(C[C@@H]2NC(=O)[C@H](CC(=O)O)NC(=O)CNC(=O)[C@H](CCCNC(=N)N)NC(=O)[C@@H]3CCCN3C(=O)[C@H](CC(N)=O)NC(=O)[C@@H](NC(C)=O)CSSC[C@@H](C(N)=O)NC(=O)[C@H](CC(C)C)NC2=O)cc1 | 0.248 µM | –
COc1ccc(C[C@@H]2NC(=O)[C@H](CC(=O)O)NC(=O)CNC(=O)[C@H](CCCNC(=N)N)NC(=O)[C@@H]3CCCN3C(=O)[C@H](CC(N)=O)NC(=O)[C@@H](NC(C)=O)CSSC[C@@H](C(N)=O)NC(=O)[C@H](C)NC2=O)cc1 | 0.05 µM | 0.84 µM
COc1ccc(C[C@@H]2NC(=O)[C@H](CC(=O)O)NC(=O)CNC(=O)[C@H](CCCNC(=N)N)NC(=O)[C@@H]3CCCN3C(=O)[C@H](CC(N)=O)NC(=O)[C@@H](NC(C)=O)CSSC[C@@H](C(N)=O)NC(=O)[C@H](CCCNC(N)=O)NC2=O)cc1 | 0.352 µM | 0.44 µM
COc1ccc(C[C@@H]2NC(=O)[C@H](CC(=O)O)NC(=O)CNC(=O)[C@H](CCCNC(=N)N)NC(=O)[C@@H]3CCCN3C(=O)[C@H](CC(N)=O)NC(=O)[C@H](NC(C)=O)C(C)(C)SSC[C@@H](C(N)=O)NC(=O)[C@H](CCCNC(=N)N)NC2=O)cc1 | 0.001 µM | 6.8 µM
